Experimental data reported in PubChem BioAssay AID2517 (National Center for Advancing Translational Sciences (NCATS), 2010).
The entries are a selection whose mix differs from that of the whole data set. Inconclusive results are not listed. Calls of active or inactive are those of the source. The call rests on the fitted dose curve; in most records, active means well fitted inhibition curve with a large enough effect; inconclusive means small, poorly fitted or top-dose-only effect; inactive means no such curve, though single readings can be large or run the other way.

By UniProt entry, the sequences of proteins in these tests, tags left out.
UniProt P27695, whole entry: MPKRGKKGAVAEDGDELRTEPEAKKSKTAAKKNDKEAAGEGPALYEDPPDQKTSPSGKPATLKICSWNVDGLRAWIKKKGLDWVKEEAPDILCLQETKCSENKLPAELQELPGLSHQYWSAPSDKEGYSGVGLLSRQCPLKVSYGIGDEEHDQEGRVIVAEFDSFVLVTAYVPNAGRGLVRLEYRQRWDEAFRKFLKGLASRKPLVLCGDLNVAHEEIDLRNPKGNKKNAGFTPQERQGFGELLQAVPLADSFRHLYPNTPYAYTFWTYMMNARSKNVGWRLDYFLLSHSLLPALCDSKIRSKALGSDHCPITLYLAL

Target: DNA repair nuclease/redox regulator APEX1 (Homo sapiens) (UniProt P27695)
Assay: qHTS Assay for Inhibitors of the Human Apurinic/apyrimidinic Endonuclease 1 (APE1);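 further: plate controls were vehicle for no effect and reference inhibitor for full effect; nearly all actives have a fitted effect of over 55% in size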
Conditions: recombinant APE1, TAMRA/BHQ-2 abasic DNA cleavage fluorescence; at 65.8 µM (top of the series)

**Q.** With c1nnnn1CCn1cnnn1 as the molecule, how does the activity change, negative = inhibition read?
**A.** inactive: -1.4%

**Q.** How did the activity change, negative = inhibition turn out when Cc1ccc(C)c(NP(C)(=O)Oc2ccccc2)c1 (configuration not stated) was run?
**A.** inactive: 13.9%
